A short description of the data set: Deliquescency of powder at 25° C., normal pressure, 75% RH, observed with naked eyes. The class given is physicochemical. As to conditions: relative humidity 75% RH. The procedure: The solid oxidized glutathione salt obtained as described above has low deliquescency and high water solubility. The deliquescency of the solid oxidized glutathione can be evaluated by allowing a powder of the salt to stand in an environment at a temperature of 25° C., normal pressure, e.g. 1 atmospheric pressure, and a relative humidity of 75% RH, and observing whether deliquescence starts or not with naked eyes.
Each of the powders of the solid-state oxidized glutathione salt obtained in the above respective Examples was allowed to stand in atmospheric condition of a temperature of 25° C., normal pressure and a relative humidity of 75% RH. After 2 hours or 24 hours, it was determined whether or not deliquescence was is present by observing the occurrence of shape change with naked eyes. For comparison, the deliquescencies of the above commercially available solid oxidized glutathiones were investigated in the same manner.

Consider one substance from US9303062B2, “Solid oxidized glutathione salt and method for producing same” (priority 2011, dated 2016).

Regarding “oxidized glutathione monoammonium salt [Example 2]”, for the setting “after 2 hours”, the “Deliquescency 2 hours” value is reported as “no”. Further, under “after 24 hours”, the “Deliquescency 24 hours” value was “no”.
